The list shows a part of the results, in another mix than the full data. Inconclusive results are not listed. Activity calls are given as the source filed them. The call rests on the fitted dose curve; in most records, active means well fitted activation curve with a large enough effect; inconclusive means small, poorly fitted or top-dose-only effect; inactive means no such curve, though single readings can be large or run the other way.
Experiment: qHTS Assay for Enhancers of SMN2 Splice Variant Expression; further: % of control where 0% means no effect; nearly all actives have a fitted effect of over 55% in size
Conditions: HEK293 SMN2-luciferase splicing reporter, luminescence, 30-36 h; at 46.1 µM (top of the series) unless noted

In the case of `O=P1(Nc2nc3ccc(Cl)cc3s2)COc2ccccc2O1` (centres undefined), the activity change, positive = activation is reported as inactive: 40%.

For `CC(C)(C)C(=O)NC(Sc1ccccc1)C(Cl)(Cl)Cl` (centres undefined), the activity change, positive = activation was inactive: -10.6%.

For `CC(=O)Nc1ccc(Oc2c([N+](=O)[O-])cc([N+](=O)[O-])cc2[N+](=O)[O-])cc1`, the activity change, positive = activation was inactive: 17.5%.

With `CCOC(=O)NC(Sc1ccccc1)C(Cl)(Cl)Cl` (centres undefined) the activity change, positive = activation was inactive: -1.38%.

In the case of `O=C(NC1CCS(=O)(=O)C1)NP(=S)(Oc1ccccc1)Oc1ccccc1` (centres undefined), the activity change, positive = activation is reported as inactive: 12.4%.

For `CCNC(=S)/N=C(\N)N[N+](=O)[O-]`, the activity change, positive = activation was inactive: -2.59%.

With `CCC(=O)N1C2C3N(C(=O)CC)C1C1N(C(=O)CC)C(C(N1C(=O)CC)N3C(=O)CC)N2C(=O)CC` the activity change, positive = activation was inactive: 24.2%.

With `CN(C(=O)Cc1ccc(Cl)c(Cl)c1)[C@@H]1CCCC[C@@H]1N1CCCC1` the activity change, positive = activation was inactive: -12.1%.

In the case of `CC(=O)NC(SC(=S)N(CC(C)C)CC(C)C)C(Cl)(Cl)Cl` (centres undefined), the activity change, positive = activation is reported as inactive: -27.5%.

For `Cc1ccc(OP(=O)(Nc2ccccn2)Oc2ccc(C)cc2)cc1`, the activity change, positive = activation was inactive: -22.4%.

With `COC(=O)c1cc2c(s1)N=C(c1ccccc1)N(C)P2(=O)N1CCOCC1` (centres undefined) the activity change, positive = activation was inactive: -9.46%.

In the case of `O=P(Nc1ccccn1)(c1ccc(Br)cc1)c1ccc(Br)cc1`, the activity change, positive = activation is reported as inactive: -8.37%.

With `CN(C(=O)Cc1ccccc1)[C@H]1CC[C@@]2(CCCO2)C[C@@H]1N1CCCC1` the activity change, positive = activation was inactive: -3.52%.

In the case of `[N-]=[N+]=Nc1ccc([As](=O)(O)O)cc1`, the activity change, positive = activation is reported as inactive: -8.49% [at 9.22 µM].

For `Cc1cc([N+](=O)[O-])cc([N+](=O)[O-])c1O`, the activity change, positive = activation was inactive: -13.9%.

With `CC(=O)NC(SC(=S)N(C)C)C(Cl)(Cl)Cl` (centres undefined) the activity change, positive = activation was inactive: -3.02%.

With `C(Cc1nn[nH]n1)Cc1nn[nH]n1` the activity change, positive = activation was inactive: 1.11%.

With `O=P(Nc1nccs1)(c1ccccc1)c1ccccc1` the activity change, positive = activation was inactive: 9.85%.

With `c1nnnn1CCn1cnnn1` the activity change, positive = activation was inactive: 8.65%.

With `CN1CCC[C@H](OC(=O)C(c2ccccc2)c2ccccc2)C1` the activity change, positive = activation was inactive: -7.05% [at 9.22 µM].

For `C[C@@H](O)COc1ccc([As](=O)(O)O)cc1N`, the activity change, positive = activation was inactive: -6.2% [at 9.22 µM].

With `COc1ccc(C2=NCC(CBr)S2)cc1` (centres undefined) the activity change, positive = activation was inactive: 13.9%.

In the case of `O=[N+]([O-])c1cc([N+](=O)[O-])c(CCNc2ccccc2)c([N+](=O)[O-])c1`, the activity change, positive = activation is reported as inactive: -22.9%.

With `Cc1ccc(NP(=O)(Oc2ccccc2)Oc2ccccc2)nc1` the activity change, positive = activation was inactive: 5.51%.

For `CC(=O)N1C2C3N(C(C)=O)C1C1N(C(C)=O)C(C(N1C(C)=O)N3C(C)=O)N2C(C)=O`, the activity change, positive = activation was inactive: 12.6%.

In the case of `O=[N+]([O-])c1cccc2n[nH]nc12`, the activity change, positive = activation is reported as inactive: -5.58%.

For `CCN(/C(=N/P(=O)(N1CCOCC1)N1CCOCC1)N1CCOCC1)c1ccc(OC)cc1`, the activity change, positive = activation was inactive: -2.59%.

In the case of `CC1CCN(C(=O)Oc2c(Cl)cc(Cl)c3cccnc23)CC1`, the activity change, positive = activation is reported as inactive: -1.02%.

With `CC(=O)C1=CCCC2CCC1N2` (centres undefined) the activity change, positive = activation was inactive: -1.75%.

In the case of `O=C(CO)Nc1ccc([As](=O)(O)O)cc1`, the activity change, positive = activation is reported as inactive: -13% [at 9.22 µM].

For `CN(C)C(=O)OCCc1n(C)cc[n+]1C`, the activity change, positive = activation was inactive: 9.46%.

For `CC(C)=N/N=C(\N)N[N+](=O)[O-]`, the activity change, positive = activation was inactive: -7.19%.

In the case of `O=[N+]([O-])c1ncn(CCn2ncnc2[N+](=O)[O-])n1`, the activity change, positive = activation is reported as inactive: 5.79%.

With `CCOP(=O)(Nc1ccccc1)OCC` the activity change, positive = activation was inactive: 7.98%.

For `Cc1cc(SC(NC(=O)c2ccc(F)cc2)C(Cl)(Cl)Cl)ncn1` (centres undefined), the activity change, positive = activation was inactive: 18.7%.

With `[N-]=[N+]=NCC(O)CN=[N+]=[N-]` (centres undefined) the activity change, positive = activation was inactive: -8.66% [at 9.22 µM].

For `C(Cc1nn[nH]n1)c1nn[nH]n1`, the activity change, positive = activation was inactive: -22.6% [at 9.22 µM].

With `CCN(N=Nc1nonc1N)c1nonc1N` the activity change, positive = activation was inactive: 6.9%.

In the case of `Cc1ccc(N/C(=N/P(=O)(N2CCOCC2)N2CCOCC2)N2CCOCC2)cc1`, the activity change, positive = activation is reported as inactive: 15.9%.

With `NC(=O)c1cc([N+](=O)[O-])cc([N+](=O)[O-])c1N` the activity change, positive = activation was inactive: 2.69%.

In the case of `CN1CCCC(OC(=O)C(c2ccccc2)c2ccccc2)C1` (centres undefined), the activity change, positive = activation is reported as inactive: -3.14%.

In the case of `O=[N+]([O-])c1ccc(C[As](=O)(O)O)cc1`, the activity change, positive = activation is reported as inactive: -9% [at 9.22 µM].

For `Cc1c2non([O-])c-2c(C)[n+](=O)[n+]1[O-]`, the activity change, positive = activation was inactive: -11.7%.

For `Oc1ccccc1CNc1ccccn1`, the activity change, positive = activation was inactive: 10.6%.

Source: PubChem BioAssay AID1458 (National Center for Advancing Translational Sciences (NCATS), 2008)
